Results from patent US11219598B2, “Ophthalmic drug sustained release device” (PUBLIC UNIVERSITY CORPORATION NAGOYA CITY UNIVERSITY, priority 2016, dated 2022).

Experiment: Drug release test of cetuximab-containing sustained release device implanted extraocularly in rabbit
Type: in vivo
Excerpt: The hollow device (FIGS. 6(A) and (B)) made of VisiJet (registered trademark) Crystal (ultraviolet curable acrylic resin) was produced by using a three-dimensional (3D) printer (Projet 3510HD plus). After filling of the hollow device with a cetuximab solution as an antibody drug, it was subjected to freeze drying treatment. The properties of the sustained release device 10, which was produced in this manner and filled with cetuximab as a porous body, were investigated. Comparison was made between the case where air was used and the case where a sufficient amount of SF6 was substituted for air (SF6 enclosed), just before transplantation, as the gas to be filled in the device.
After a rabbit was anesthetized by intramuscular injection of Ketalar and Selactar, the pupil of the right eye was dilated with a […] hydrochloride ophthalmic solution (Mydrin-P (registered trademark), Santen Pharmaceutical Co., Ltd.). Next, after surface anesthesia by ocular instillation of oxybuprocaine hydrochloride (Benoxil ophthalmic solution, Santen Pharmaceutical Co., Ltd.), the conjunctiva was incised to expose the sclera, and a sclerocornea tunnel was prepared. […]
After surgery, anterior chamber water was sucked and collected periodically, and cetuximab in the anterior chamber water sample was quantified with an ELISA kit. […]

## cetuximab
freeze-dried cetuximab in hollow device 10, extraocular implant, tube tip in anterior chamber, rabbit
  duration of sustained release (cetuximab in anterior chamber water, ELISA): ≥ 6 months
freeze-dried cetuximab in hollow device 10, rabbit, gas in device SF6 compared with air
  suitability for long-term sustained release, SF6 enclosed versus air enclosed: more suitable for long-term sustained release
